Bioassay records from PubChem BioAssay.
NALP1 yeast inh = NALP1 inflammasome inhibitors in reconstituted yeast, colorimetric, S. cerevisiae, triplicate retest; hit rate 0.61% among 280,000; inhibition, % at 10 µM; S. cerevisiae NALP1/ASC/caspase-1 growth, X-gal OD620, 72 h; in the data active = inhibition mostly above about 24%, no sharp cut-off; inactive = mostly below about 32%
HDAC3 inh = HDAC3 deacetylase inhibitors, primary screen, biochemical, fluorescence, cell-free homogeneous | Histone deacetylase 3 (Homo sapiens), O15379 | recombinant HDAC3, fluorogenic peptide/trypsin coupled | inhibition, % at 8.3 µM | hit rate 0.15% among 320,000 | AID 2718, 2010; in the data active = inhibition above about 26%, passing the limit was not always enough
UUG fidelity = alters start codon recognition fidelity in yeast | S. cerevisiae UUG-firefly luciferase reporter, luminescence/redox ratio | activity score, % at 18.7 µM | 350,000 compounds, 0.13% hits | AID 602363;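 active = replicate mean at a twofold rise or more, about +100% in these data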;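 note: firefly luciferase made from a UUG start codon reports start codon fidelity; reporter light over untreated wells divided by growth signal over untreated wells; some hits fall short of that in this replicate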
MC4R antag cAMP = MC4R antagonists of cAMP signaling, primary screen, cell-based, TR-FRET, antagonist arm of biased-ligand search; AID 540295, 2011; hit rate 0.48% among 360,000; inhibition, % at 6.5 µM; MC4R-expressing cells, MTII-stimulated cAMP, LANCE TR-FRET;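 active = inhibition above its plate's cutoff, the mean of tested wells on that plate plus 3 SD, cut at about 29% in these data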;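 also: 0% = Melanotan II alone and 100% = Melanotan II plus saturating MCL0020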
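Assay system: human MC4R-expressing U2OS cells; reagent: Melanotan II stimulation of cells; dosing: 6.5 µM single dose; timing: compound 30 min, challenge 1 h, detection 1 h; signal: TR-FRET cAMP assay; replicates: one well per compound, no replicates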
MC4R barr agon = MC4R agonists recruiting beta-arrestin, primary screen, cell-based, luminescence, agonist arm of biased-ligand search | hit rate 0.98% among 360,000 | AID 540308, 2011 | U2OS MC4R beta-arrestin complementation; percent of melanotan II response, DMSO zero | Melanocortin receptor 4 (Homo sapiens), P32245 | activation, % at 8.9 µM;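 active = activation above a per-plate cutoff, the mean activation of sample wells on that plate plus 3 SD, cut at about 8% in these data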
ALR H2O2 inh = inhibitors of human ALR sulfhydryl oxidase, primary screen, biochemical, H2O2 detection, HRP-luminol luminescence, single point; FAD-linked sulfhydryl oxidase ALR (Homo sapiens), P55789; purified ALR, DTT oxidation; inhibition, % (test concentration not listed); 290,000 tested, 3.8% active; AID 485317, 2010;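 active = mean and each replicate at 75% or more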;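 note: stock transfer was 7.5 nL into about 7.5 µL; 0% = neutral wells and 100% = wells with inactivated enzyme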
* marks the source's active call; other numbers are inactive results; x = no result given. The list is not random: actives were taken first. Their share in the collection is about 4.2%.

Amino acid sequences for entries named in this document (tags omitted).
Melanocortin receptor 4 (Homo sapiens), P32245, UniProt P32245, whole entry, looked up: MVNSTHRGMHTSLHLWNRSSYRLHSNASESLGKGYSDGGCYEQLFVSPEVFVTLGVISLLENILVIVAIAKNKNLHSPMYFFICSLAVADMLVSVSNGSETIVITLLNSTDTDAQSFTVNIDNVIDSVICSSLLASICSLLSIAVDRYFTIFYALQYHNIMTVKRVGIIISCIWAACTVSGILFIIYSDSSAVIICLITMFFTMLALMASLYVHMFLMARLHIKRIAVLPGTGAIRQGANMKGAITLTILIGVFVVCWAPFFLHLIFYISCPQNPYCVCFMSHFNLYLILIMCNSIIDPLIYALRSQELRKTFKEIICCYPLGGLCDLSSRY

item	Structure	NALP1 yeast inh	HDAC3 inh	UUG fidelity
1	CCn1cc(-c2ccccc2)c(C(=O)O)c1-c1ccc(OC)cc1	x	-2	-15
2	COc1ccccc1-c1cnc2c(c1)C(=O)N([C@@H](C)CO)C[C@H](C)[C@H](CN(C)C(=O)CN(C)C)O2	x	x	-1
3	O=C(N[C@H]1CC[C@H](CCn2cc(Cc3ccccc3)nn2)O[C@H]1CO)c1ccccn1	x	x	-7
4	COc1ccccc1CN1[C@H](CO)[C@H]2c3ccccc3N(C(=O)C3CCCCC3)C[C@H]21	x	x	-9
5	O=c1c(-c2ccc(O)cc2)coc2c(C3O[C@H](CO)[C@@H](O)[C@H](O)[C@H]3O)c(O)ccc12 (stereo not given in full)	9	-11	-5
6	O=c1cc(-c2ccc(O)cc2)oc2c(C3OCC(O)C(O)C3O)c(O)c(C3OC(CO)C(O)C(O)C3O)c(O)c12 (stereo not given)	2	7	-19
7	O=c1c(-c2ccc(O)cc2)coc2c([C@@H]3O[C@H](CO)[C@@H](O)[C@H](O)[C@H]3O)c(O)ccc12	x	-7	-18
8	O=C(c1ccc(Br)cc1)c1cc2ccc(O)cc2oc1=O	16	-7	-8
9	O=C(c1ccccc1)c1cc2ccc(O)cc2oc1=O	16	0	-35
10	O=C(NCC[C@@H]1CC[C@@H](NS(=O)(=O)c2cccc(F)c2)[C@@H](CO)O1)C1CCCC1	x	x	-3
11	COc1ccc(-c2nn(-c3ccccc3)cc2C=O)cc1[N+](=O)[O-]	8	2	-3
12	COc1ccc(Cc2nnc(N/N=C/c3ccc(N(C)C)cc3)[nH]c2=O)cc1OC	-5	6	x

item	MC4R antag cAMP	MC4R barr agon	ALR H2O2 inh
1	3	-1	85*
2	x	x	x
3	x	x	x
4	x	x	x
5	10	0	99*
6	-1	-1	20
7	2	0	99*
8	0	-1	97*
9	3	-2	11
10	x	x	x
11	-4	9.5*	-16
12	7	1	99*

The final 4 compounds of the section before lead into the next:
item	Structure	NALP1 yeast inh	HDAC3 inh	UUG fidelity
9	O=C(c1ccccc1)c1cc2ccc(O)cc2oc1=O	16	0	-35
10	O=C(NCC[C@@H]1CC[C@@H](NS(=O)(=O)c2cccc(F)c2)[C@@H](CO)O1)C1CCCC1	x	x	-3
11	COc1ccc(-c2nn(-c3ccccc3)cc2C=O)cc1[N+](=O)[O-]	8	2	-3
12	COc1ccc(Cc2nnc(N/N=C/c3ccc(N(C)C)cc3)[nH]c2=O)cc1OC	-5	6	x
13	Cc1cc(=O)[nH]c(N/N=C/c2ccc(N(C)C)cc2)n1	8	2	x
14	COc1cc(/C=N/Nc2nc(C)cc(=O)[nH]2)ccc1O	-4	0	-35
15	Cc1cc(=O)[nH]c(Nc2ccc(N(C)C)cc2)n1	0	0	-11
16	Cc1cc(=O)[nH]c(Nc2ccc(Cl)cc2)n1	-6	-1	-15
17	C[C@H](CO)N1C[C@H](C)[C@@H](CN(C)CC2CCCCC2)Oc2ccc(NS(C)(=O)=O)cc2CC1=O	x	x	2
18	CNC[C@@H]1Oc2ccc(NC(=O)Nc3ccccc3)cc2CC(=O)N([C@H](C)CO)C[C@H]1C	x	x	-6
19	COc1ccc(S(=O)(=O)Nc2cccc3c2O[C@H](CN(C)C(=O)Nc2ccc(F)cc2)[C@H](C)CN([C@@H](C)CO)C3=O)cc1	x	x	4
20	Cc1cc(=O)[nH]c(N/N=C/c2ccc(Cl)cc2Cl)n1	-2	-3	1
21	CCN(CCC#N)c1ccc(/C=N/Nc2nc(C)cc(=O)[nH]2)c(C)c1	29	2	x
22	CCOC(=O)c1c(N)sc(C(=O)OC)c1C	18	0	x
23	CCOC(=O)c1c(N)sc2c(OC)c(Br)ccc12	9	5	41
24	O=C(CSc1nc2ccccc2[nH]1)c1ccc(Cl)s1	14	2	x

item	MC4R antag cAMP	MC4R barr agon	ALR H2O2 inh
9	3	-2	11
10	x	x	x
11	-4	9.5*	-16
12	7	1	99*
13	-7	-1	99*
14	-6	0	98*
15	-2	1	99*
16	7	-3	x
17	x	x	x
18	x	x	x
19	x	x	x
20	13	-1	-6
21	-20	-2	99*
22	-6	-1	x
23	-3	0	99*
24	-1	-1	x

Going on with the list:
item	Structure	NALP1 yeast inh	HDAC3 inh	UUG fidelity
25	C/C(=N\Nc1nc2ccccc2[nH]1)c1ccc(C)o1	25	4	x
26	C/C(=N\Nc1nc2ccccc2[nH]1)c1ccc(Cl)s1	49	-4	-25
27	C/C(=N\Nc1nc2ccccc2[nH]1)c1ccc(N2CCOCC2)cc1	-9	2	x
28	C=CC[C@H](O)c1ccc(O)c(F)c1	x	x	-14
29	CC(=O)Nc1ccc(NC(=O)Cc2sc(C)nc2-c2ccc(C)cc2)cc1	24	x	x
30	Cc1ccc(-c2nc(Nc3cccc(C)c3)sc2CC(=O)O)cc1	18	7	-18
31	Cc1ccc(-c2nc(C)sc2CC(=O)Nc2nnc(C)s2)cc1	-8	-2	-13
32	Cc1cccc(Nc2nc(CC(=O)O)cs2)c1	0	-1	-17
33	COC(CN(C(=O)CCl)C(C(=O)NC1CCCCC1)c1ccc(Cl)cc1)OC (stereo not given)	26	-8	-2
34	COc1ccc(N(C(=O)c2cnccn2)C(C(=O)NC2CCCCC2)c2ccc(Cl)cc2)cc1 (stereo not given)	x	8	-12
35	COC(CN(C(=O)CCl)C(C(=O)NC1CCCCC1)c1ccccc1C)OC (stereo not given)	22	3	x
36	COc1ccc(C(C(=O)NC2CCCCC2)N(C(=O)CCl)c2ccc(Cl)cc2)cc1 (stereo not given)	16	3	0

item	MC4R antag cAMP	MC4R barr agon	ALR H2O2 inh
25	1	5	99*
26	15	3	99*
27	2	2	52
28	x	x	x
29	8	0	x
30	-9	-1	98*
31	-5	2	98*
32	18	-3	30
33	7	-2	0
34	2	1	31
35	8	2	77*
36	20	13*	-4

The list goes on:
item	Structure	NALP1 yeast inh	HDAC3 inh	UUG fidelity
37	O=C(NC1CCCCC1)C(c1cccnc1)N(C(=O)CCl)c1cccc(Cl)c1 (stereo not given)	39	7	-1
38	C[C@@H](NC(=O)C[C@@H]1C[C@H]2c3cc(NC(=O)Nc4ccccc4F)ccc3O[C@H]2[C@@H](CO)O1)c1ccccc1	x	x	-4
39	COC(=O)C[C@H]1CC[C@H]2[C@@H](COc3ccc(NS(=O)(=O)c4cccc(F)c4)cc3C(=O)N2C)O1	x	x	-1
40	COc1ccc(-c2cc(-c3n[nH]c(=S)n3-c3ccccc3OC)[nH]n2)cc1	-1	12	x
41	COc1ccc(OC)c(-n2c(-c3cc(-c4ccccc4)n[nH]3)n[nH]c2=S)c1	7	10	x
42	O=C(Nc1ccc(F)cc1)N1CCCCN2[C@H](C1)[C@H](c1ccc(C3=CCCCC3)cc1)[C@@H]2CO	x	x	6
43	CCOc1ccc(C(=O)/C=C/c2cc(OC)c(OC)c(OC)c2)cc1	9	-4	-10
44	COC(=O)c1ccc(/C=C/C(=O)c2ccc(OC)c(OC)c2)cc1	3	-14	-10
45	COc1ccc(C(=O)/C=C/c2ccccc2)c(O)c1	3	5	-15
46	COc1ccc(/C=C/C(=O)c2ccc(OC)cc2OC)cc1	-2	6	-16

item	MC4R antag cAMP	MC4R barr agon	ALR H2O2 inh
37	4	13*	2
38	x	x	x
39	x	x	x
40	12	0	88*
41	0	0	66
42	x	x	x
43	24	2	9
44	4	-3	99*
45	6	2	53
46	10	0	94*
